Only a part is listed here, and it is no random draw. Some tests of the compounds listed are not included; inactive here does not mean inactive elsewhere. Calls of active or inactive are those of the source.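 How the source made its calls: active means activation above the mean of all tested compounds plus 3 SD (cut at about 21% in these data); inactive means the rest.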

By UniProt entry, the sequences of proteins in these tests, tags left out.
UniProt P42574, whole entry D9A/D28A/D175A: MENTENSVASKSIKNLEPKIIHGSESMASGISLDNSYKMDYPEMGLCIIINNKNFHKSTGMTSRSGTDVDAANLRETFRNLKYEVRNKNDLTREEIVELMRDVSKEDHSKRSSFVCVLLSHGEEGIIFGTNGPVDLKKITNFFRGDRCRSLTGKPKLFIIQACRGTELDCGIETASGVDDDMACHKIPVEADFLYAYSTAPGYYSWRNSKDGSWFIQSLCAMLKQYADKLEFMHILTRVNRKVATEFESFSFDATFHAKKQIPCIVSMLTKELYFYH

In this test the target is Caspase-3 (Homo sapiens) (UniProt P42574). In words: procaspase-3 enzyme activation – biochemical, absorbance, PC-3 D3A mutant, single concentration, primary screen (AID 463141).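 Further: 0% = DMSO alone and 100% = DMSO wells spiked with extra 5 µM PC-3 D3A.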 The following applies: recombinant procaspase-3 D3A, Ac-DEVD-pNA absorbance 405 nm; at 8.5 µM; stronger effect = higher value.
For the compound `C=CCN1CCN(CCOC(=O)C(O)(c2ccccc2)c2ccccc2)CC1`, the activation was inactive: -0.16%.

In the case of `O=C(NCC1(N2CCCCC2)CCCCC1)c1cc(F)c(F)cc1Cl`, the activation is inactive: -3.52%.

On to `Cc1cc(C(=O)NCC2(N3CCCCC3)CCCCC2)ccc1[N+](=O)[O-]`, for which the activation is inactive: 0.63%.

For the compound `CCN1CCCC(OC(=O)C2(O)c3ccccc3C=Cc3ccccc32)C1` (centres undefined), the activation was inactive: 7.97%.

In the case of `O=C(NCC1(N2CCCCC2)CCCCC1)c1cccc(Br)c1`, the activation was inactive: -2.32%.

In the case of `COc1ccc(C(=O)NCC2(N(C)C)CCCCC2)cc1`, the activation is inactive: 2.1%.

On to `Cc1ccccc1C(=O)NCC1(N2CCCCC2)CCCCC1`, for which the activation was inactive: 8.84%.

For the compound `CN(C)C1CCCC1OC(=O)C(O)(c1ccccc1)c1ccccc1` (centres undefined), the activation is inactive: -0.53%.

As for `CN(C)c1ccc(C(=O)NCC2(N(C)C)CCCCC2)cc1`, the activation was inactive: -3.47%.

On to `CC(C)N1C(=O)CC2(CCN(CCOC(=O)C(O)(c3ccccc3)c3ccccc3)CC2)C1=O`, for which the activation was inactive: -12.9%.

As for `CCN(CC)CC(C)C(C)OC(=O)C(O)(c1ccccc1)c1ccccc1` (centres undefined), the activation was inactive: 1.99%.

In the case of `COc1cc(SC)ccc1C(=O)NCC1(N(C)C)CCCCC1`, the activation was inactive: 2.32%.

For `Cc1ccc(C(=O)NCC2(N3CCCCC3)CCCCC2)cc1`, the activation is inactive: 0.03%.

With `O=C(NCC1(N2CCCCC2)CCCCC1)c1cc([N+](=O)[O-])ccc1Cl`, the activation is inactive: 7.37%.

In the case of `CN1[C@@H]2CC[C@H]1CC(OC(=O)C(O)(c1ccccc1)c1ccccc1)C2` (some centres undefined), the activation is inactive: -6.07%.

Consider `COc1ccc(Br)c(C(=O)NCC2(N3CCCCC3)CCCCC2)c1`, for which the activation was inactive: 3.73%.

On to `CN(C)c1cccc(C(=O)NCC2(N(C)C)CCCCC2)c1`, for which the activation is inactive: 4.41%.

Turning to `CC(C)Oc1ccc(C(=O)NCC2(N(C)C)CCCCC2)cc1`, the activation was inactive: 3.94%.

As for `O=C(OC1CN2CCC1CC2)C(CO)(c1ccccc1)c1ccccc1` (centres undefined), the activation was inactive: 4.21%.

As to `COc1cccc(C(=O)NCC2(N3CCCCC3)CCCCC2)c1`, the activation was inactive: -1.12%.

With `COc1ccc(Cl)cc1C(=O)NCC1(N(C)C)CCCCC1`, the activation was inactive: -1.12%.

In the case of `O=C(NCC1(N2CCCCC2)CCCCC1)c1cccc(Cl)c1`, the activation is inactive: 5.42%.

Turning to `CN(C)C1(CNC(=O)c2ccc(Br)cc2)CCCCC1`, the activation was inactive: 5.8%.

For `COc1cc(C(=O)NCC2(N(C)C)CCCCC2)c([N+](=O)[O-])cc1OC`, the activation was inactive: -6.07%.

These data come from PubChem BioAssay AID463141 (The Scripps Research Institute Molecular Screening Center, 2010).
